{"source": "patent US20050170442", "proteins": {"B1": {"name": "GSK3β, rHuman (protein)", "chain": "MSGRPRTTSFAESCKPVQQPSAFGSMKVSRDKDGSKVTTVVATPGQGPDRPQEVSYTDTKVIGNGSFGVVYQAKLCDSGELVAIKKVLQDKRFKNRELQIMRKLDHCNIVRLRYFFYSSGEKKDEVYLNLVLDYVPETVYRVARHYSRAKQTLPVIYVKLYMYQLFRSLAYIHSFGICHRDIKPQNLLLDPDTAVLKLCDFGSAKQLVRGEPNVSYICSRYYRAPELIFGATDYTSSIDVWSAGCVLAELLLGQPIFPGDSGVDQLVEIIKVLGTPTREQIREMNPNYTEFKFPQIKAHPWTKVFRPRTPPEAIALCSRLLEYTPTARLTPLEACAHSFFDELRDPNVKLPNGRDTPALFNFTTQELSSNPPLATILIPPHARIQAAASTPTNATAASDANTGDRGQTNNAASASASNST"}}, "target": "T1, Biotin-labeled fluorescent peptide CPRPFSVPP(S*)PDK-(5-FAM) (not fully specified)", "T1 chain": "CPRPFSVPPSPDK"}
{"protein": "B1", "values": [{"measurement": "amount of enzyme/well needed for roughly 50% maximal signal at 10 µM ATP/well (TR-FRET enzyme titration)", "value": 0.209, "unit": "µg/ml for GSK3β"}]}
